Patent US9790262B2, “Compositions comprising glucagon analogs and methods of making and using the same” (LONGEVITY BIOTECH, INC., priority 2011, dated 2017)

Test: Stability in human liver microsomes
Experimental: Human liver microsomes were prepared by Absorption Systems. A reaction mixture, minus NADPH, was prepared as described below. […] In parallel, a […]. The test compound was added into the reaction mixture (0.5 mg/mL human liver microsomes; 100 mM potassium phosphate; 5 mM Magnesium chloride) at a final concentration of 1 μM. An aliquot of the reaction mixture (without cofactor) was incubated in a shaking water bath at 37° C. for 3 minutes. […] The samples were then mixed and centrifuged to precipitate microsomal proteins. […] A thermo BDS Hypersil C18 column (30×2.0 mm; 3 μm) was used for chromatography at 300 μL/minute with an aqueous reservoir of 90% water and 10% buffer and an organic reservoir of 90% acetonitrile with 10% buffer (each 25 mM ammonium formate buffer at pH of 3.5). Test compound samples were analyzed by orbitrap. The peak area response ratio to internal standard (PARR) of the compounds at 10, 20, 30, and 60 minutes was compared to the PARR at time 0 to determine the percent of test compound remaining at each timepoint. After the final time point, fluorimetry is used to confirm the addition of NADPH to the reaction mixture. Half-life was normalized of control using internal acceptance criteria. […]
Intrinsic clearance (CLint) was calculated based upon CLint=k/P, where k is the elimination rate constant and P is the protein concentration in the incubation.

Compound `C[C@]12CC[C@H]3[C@@H](CCC4=CC(=O)CC[C@@]43C)[C@@H]1CC[C@@H]2O` [Testosterone, testosterone] has a half-life at 1 μM of 13.6 min.
